This note sets out measurements from patent publication US20160206726A1, “IMMUNOTHERAPY” (priority 2013, published 2016).

Common to all, as to type: in vitro ADME, human
One series has as its system LCL target cells. In words: Comparison of the plasma stability of cyclic peptide and APEC in LCL model (IFN-γ T cell recognition after plasma treatment). As to the method:
10 ug cyclic peptide or 10 ug APEC, which had been treated for 4 hrs @ 37° C. with human plasma, was added to target cells. These cells were incubated with peptide-specific T cells overnight and IFN-γ assayed for T cell recognition of the processed peptide. The cyclic peptide was the same as that described in Example 1.

Series [1] concerns SW620 cells (colorectal cell line). The experiment in a line: Plasma stability of cyclic peptide in colorectal cancer model (IFN-γ T cell recognition after plasma treatment). The procedure:
SW620 cells (colorectal cell line) were incubated with 10 ug cyclic peptide or 10 ug linear peptide which had been treated for 2 hrs @ 37° C. with human plasma. These cells were incubated with peptide-specific T cells overnight and IFN-γ assayed for T cell recognition of the processed peptide. The cyclic peptide was the same as that described in Example 1.

The subject of another series is LCLs (tumour B cells). In words: Plasma stability of cyclic peptide in LCL model (IFN-γ T cell recognition after plasma treatment). As to the method:
LCLs (tumour B cells) were incubated with or without a protease inhibitor cocktail (PIC) for 2 hrs at 37° C. 10 ug cyclic peptide or 10 ug linear peptide which had been treated for 4 hrs @ 37° C. with human plasma, was added to PIC treated or untreated cells. The cyclic peptide was the same as that described in Example 1. These cells were incubated with peptide-specific T cells overnight and IFN-γ assayed for T cell recognition of the processed peptide.

As to FRGGANLVPMVATVAA [cyclic peptide], in the series with LCL target cells (LCL model, 10 ug treated 4 hrs at 37° C with human plasma), the “decrease of the T cell response by serum treatment compared with untreated agent” value is given as about 50%. The “time the peptide is stable in plasma” value in the series on LCL target cells (human plasma 37° C, readout T cell response in LCL model) was “at least 4 hours”; in series [1] (human plasma 37° C, readout T cell response to SW620 cells) it was “at least 2 hours”; in the series on LCLs (tumour B cells) (human plasma 37° C, readout T cell response to LCLs), “at least 4 hours”. Besides, in series [1] (SW620 cells, 10 ug peptide treated 2 hrs at 37° C with human plasma), the “decrease of the T cell response by serum treatment” value is on record as about 60%. The “T cell response (IFN-γ) to target cells after plasma treatment of the peptide” value in the series with LCLs (tumour B cells) (LCLs, 10 ug peptide treated 4 hrs at 37° C with human plasma) is “decreased the responses but there is clearly still a response”.
